Read-outs that look alike come from different tables or passages of the source.
Legend:
[1] = molecular target: T1, human α-thrombin (Homo sapiens, UniProt P00734); test: Enzyme assay for the inhibition of thrombin (s-2238 chromogenic substrate); conditions: read-out: IC50 thrombin, incubation of drug with enzyme for 3 minutes, room temperature
Protocol: 1. Enzyme Assays for the Inhibition of Thrombin
Thrombin assay buffer: 145 mM NaCl, 5 mM KCl, 30 mM N-2-hydroxyethyl piperazine-N'-2-ethanesulfonic acid, pH 7.4, 1 mg/ml polyethylene glycol (PEG-8000).
3 mM D-Phe-Pip-Arg-p-nitroanilide (s-2238) in H2 O
3 U/ml purified human α-thrombin dissolved in thrombin assay buffer.
Inhibitors to be tested were dissolved in H2 O, methanol, or DMSO just prior to use.
To each well in a 96-well microtiter plate, 270 μl of assay buffer was added. Human α-thrombin (10 μl of 3 U/ml) was added, then 10 μl of inhibitor were added and mixed. The samples were incubated at room temperature for a defined period of time (3 minutes for initial IC50 determinations). The enzymatic reaction was started with 10 μl of 3 mM s-2238 substrate and continued at room temperature. The change in optical density was measured at 405 nm. A kinetic microplate reader (Molecular Devices Corporation .upsilon.max) was used to measure the change in optical density over time.
(§1) Results are reported in Table I as IC50 values, i.e., the drug concentration in mole/liter which caused 50% inhibition of the enzyme activity (after incubation of the drug with the enzyme for 3 minutes).

By UniProt entry, the sequences of proteins in these tests, tags left out. Residues count along the entry.
UniProt P00760, 24-246 limits assumed: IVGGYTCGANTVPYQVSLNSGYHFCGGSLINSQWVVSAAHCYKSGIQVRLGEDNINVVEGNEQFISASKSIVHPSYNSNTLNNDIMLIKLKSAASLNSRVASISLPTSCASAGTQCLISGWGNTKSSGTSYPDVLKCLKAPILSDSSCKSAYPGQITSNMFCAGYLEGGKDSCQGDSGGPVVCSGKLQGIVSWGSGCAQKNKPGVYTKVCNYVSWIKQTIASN

[2] = molecular target: T1, human α-thrombin; test: Concentration required for doubling thrombin clotting time in human plasma; conditions: concentration of drug which caused a doubling of the thrombin clotting time in human plasma
Protocol: Procedure for Determining the Concentration Required for Doubling Thrombin Clotting Time--Clotting Time Assays
Owren's Veronal Buffer: 125 mM NaCl, 28.4 mM sodium barbital, pH 7.35.
Human citrated plasma obtained from human volunteers or citrated plasma obtained from dosed animals (prepared as described below).
25 NIH Units/ml human α-thrombin in thrombin buffer for use with rat plasma. 10 NIH Units/ml human α-thrombin in thrombin buffer for use with human plasma.
Human Plasma: Blood from human volunteers was drawn into vacutainer tubes containing one tenth final volume of 0.129M (3.8%) buffered citrate (16 mg Sodium Citrate 2H2 O and 2.1 mg citric acid per milliliter of H2 O). The blood was centrifugated at 3500 rpm (480 xg) for 15 minutes at room temperature (using a Sorvall RT 6000B centrifugate). The plasma was removed, pooled, and aliquoted into small tubes which were stored frozen for later use.
Clotting times were determined by pipetting 0.1 ml of Owren's buffer (pre-warmed to 37° C.) and 0.1 ml of human or rat plasma into yellow sample cuvettes. For studies with human plasma 10 U/ml human thrombin (10 ml) was placed in the reservoir assembly station of the MLA 700. (Medical Laboratory Automation, Electra 700 Reservoir Assembly). For rat studies, the human thrombin concentration was 25 U/ml. The cuvettes were vortexed and then placed on the MLA 700 sample wheel. The coagulation timer (MLA 700) automatically dispenses 0.1 ml human thrombin into the sample in each cuvette. Detection of the fibrin clot was determined optically by the MLA 700.
Studies were performed to determine the concentration of drug which caused a doubling of the clotting time (DTT) in human plasma. From standard curves of thrombin activity added to the sample versus the clotting time, the concentration of drug which caused a doubling of the thrombin clotting time corresponded to inhibition of approximately 1/2 of the added thrombin clotting activity.

[3] = molecular target: bovine pancreatic trypsin (Bos taurus, UniProt P00760); test: Enzyme assay for the inhibition of trypsin (Z-Val-Gly-Arg-pNA substrate); conditions: read-out: IC50 Trypsin, incubation of drug with enzyme for 3 minutes, room temperature
Protocol: 2. Enzyme Assays for the Inhibition of Trypsin
Trypsin assay buffer: 2 mM CaCl2, 50 mM Tris/Cl pH 8.0.
3 mM Z-Val-Gly-Arg-pNA (Chromzyme TRY) dissolved in water.
6 μg/ml of purified bovine pancreatic trypsin dissolved in trypsin assay buffer.
Inhibitors to be tested were dissolved in H2 O, methanol or DMSO just prior to use.
To each well in a 96-well microtiter plate, 270 μl of assay buffer was added. Bovine trypsin (10 μg/ml) was added. Inhibitor (10 μl) was added, mixed, and then incubated at room temperature for 3 minutes. The enzymatic reaction was started with 10 μl of 3 mM Z-Val-Gly-Arg-pNA substrate. The change in optical density was measured at 405 nm at room temperature. A kinetic microplate reader (Molecular Devices Corporation .upsilon.max) was used to measure the change in optical density over time.
as §1

| Compound | IC50 ([1]; tested form: HCl) [µM] | DCT ([2]; tested form: HCl) [µM] | IC50 ([3]; tested form: HCl) [µM] | IC50 ([3]; tested form: HCl hydrate) [µM] | IC50 ([1]; tested form: HCl hydrate) [µM] | DCT ([2]; tested form: HCl hydrate) [µM] |
| --- | --- | --- | --- | --- | --- | --- |
| Cc1ccc(S(=O)(=O)NC(C=O)CCCNC(=N)N)cc1 (stereo not drawn) | 150 | 150 | – | – | – | – |
| N=C(N)NCCCC(C=O)NC(=O)C1CCCN1C(=O)CCCc1ccccc1 (stereo not drawn) | 0.88 | 0.5 | 0.024 | – | – | – |
| N=C(N)NCCCC(C=O)NC(=O)C1CCCCN1C(=O)[C@H](N)Cc1ccccc1 (stereo partly drawn) | – | 0.28 | 0.1 | – | – | – |
| N=C(N)NCCCC(C=O)NC(=O)C1CCCN1C(=O)CCc1ccccc1 (stereo not drawn) | 0.39 | 0.4 | 0.024 | – | – | – |
| CC(C)(C)OC(=O)N1CCCC1C(=O)NC(C=O)CCCNC(=N)N (stereo not drawn) | 150 | 45 | – | – | – | – |
| N=C(N)NCCCC(C=O)NC(=O)C1CCCCN1C(=O)CCc1ccccc1 (stereo not drawn) | 1.3 | – | 0.1 | – | – | – |
| N=C(N)NCCCC(C=O)NC(=O)C1CCCN1C(=O)COc1ccccc1 (stereo not drawn) | 0.84 | 1.0 | 0.024 | – | – | – |
| N=C(N)NCCCC(C=O)NC(=O)C1CCCN1C(=O)c1cc2ccccc2[nH]1 (stereo not drawn) | 1.76 | 2.5 | 0.074 | – | – | – |
| N=C(N)NCCCC(C=O)NC(=O)C1CCCN1C(=O)[C@@H](Cc1ccccc1)NC(=O)CN (stereo partly drawn) | 0.08 | 0.1 | 1.2 | – | – | – |
| N=C(N)NCCCC(C=O)NC(=O)C1CCCN1C(=O)CCc1ccc(O)cc1 (stereo not drawn) | 1.17 | 1.5 | 0.13 | – | – | – |
| N=C(N)NCCCC(C=O)NC(=O)C1CCCN1C(=O)c1ccccc1 (stereo not drawn) | 4.69 | 4.0 | 0.024 | – | – | – |
| N=C(N)NCCCC(C=O)NC(=O)C1CCCN1C(=O)CC(NC(=O)CC(N)c1ccccc1)c1ccccc1 (stereo not drawn) | 4.69 | 3.0 | – | – | – | – |
| N=C(N)NCCCC(C=O)NC(=O)C1CCCN1C(=O)Cc1ccccc1 (stereo not drawn) | 0.59 | 0.75 | 0.018 | – | – | – |
| N=C(N)NCCCC(C=O)NC(=O)C1CCCN1C(=O)CNS(=O)(=O)c1cccc2c1NCCC2 (stereo not drawn) | 0.06 | – | – | – | – | – |
| CC(NC(=O)[C@H](N)Cc1ccccc1)C(=O)NC(C=O)CCCNC(=N)N (stereo partly drawn) | 0.15 | 1.0 | 0.11 | – | – | – |
| N=C(N)NCCCC(C=O)NC(=O)C1CCCN1C(=O)CCC1CCCCC1 (stereo not drawn) | 0.15 | 0.3 | 0.018 | – | – | – |
| N=C(N)NCCCC(C=O)NC(=O)Cn1c(N)nc(-c2ccccc2)c1-c1ccccc1 (stereo not drawn) | 7.9 | – | – | – | – | – |
| N=C(N)NCCCC(C=O)NC(=O)C1CCCN1C(=O)CCc1ccncc1 (stereo not drawn) | 1.17 | 1.0 | 0.098 | – | – | – |
| N=C(N)NCCCC(C=O)NC(=O)C1CCCN1C(=O)CCc1cccs1 (stereo not drawn) | 0.59 | 0.5 | 0.024 | – | – | – |
| N=C(N)NCCCC(C=O)NC(=O)[C@H](N)Cc1ccccc1 (stereo partly drawn) | > 200 | > 200 | – | – | – | – |
| N=C(N)NCCCC(C=O)NC(=O)c1cccc(NC(=O)CCc2ccccc2)c1 (stereo not drawn) | 20 | – | – | – | – | – |
| N=C(N)NCCC[C@@H](C=O)NC(=O)CNC(=O)CCc1ccccc1 | – | – | – | 0.19 | 18.8 | 15 |
| N=C(N)NCCCC(C=O)NC(=O)C1CCCN1CCCC1CCCCC1 (stereo not drawn) | 56 | 75 | – | – | – | – |
| N=C(N)NCCCC(C=O)NC(=O)C1CCCN1C(=O)[C@H](N)Cc1ccc(O)cc1 (stereo partly drawn) | 7.04 | 5.0 | 0.13 | – | – | – |
| N=C(N)NCCCC(C=O)NC(=O)C1CCCN1C(=O)CNC1Cc2ccccc2C1 (stereo not drawn) | 0.4 | – | – | – | – | – |
| N=C(N)NCCCC(C=O)NC(=O)C1CCCN1C(=O)CC(N)c1ccccc1 (stereo not drawn) | 0.29 | 0.5 | 0.03 | – | – | – |
| N=C(N)NCCCC(C=O)NC(=O)C1CCCN1C(=O)C(CN)Cc1ccccc1 (stereo not drawn) | 1.76 | 2.0 | 0.26 | – | – | – |
| N=C(N)NCCCC(C=O)NC(=O)C1CCCN1C(=O)[C@@H](Cc1ccccc1)NC(=N)N (stereo partly drawn) | 0.11 | 0.5 | 0.2 | – | – | – |

— patent US5380713A, “Peptide aldehydes as antithrombotic agents” (Bristol-Myers Squibb Company, priority 1994, dated 1995)
